Measurements published in ChEMBL document CHEMBL1157642, “2-Amino-5-benzoyl-4-phenylthiazoles: Development of potent and selective adenosine A1 receptor antagonists” (Bioorg Med Chem, 2010).

The chains behind the UniProt entries cited, without tags or fusion partners.
UniProt P30543, whole entry: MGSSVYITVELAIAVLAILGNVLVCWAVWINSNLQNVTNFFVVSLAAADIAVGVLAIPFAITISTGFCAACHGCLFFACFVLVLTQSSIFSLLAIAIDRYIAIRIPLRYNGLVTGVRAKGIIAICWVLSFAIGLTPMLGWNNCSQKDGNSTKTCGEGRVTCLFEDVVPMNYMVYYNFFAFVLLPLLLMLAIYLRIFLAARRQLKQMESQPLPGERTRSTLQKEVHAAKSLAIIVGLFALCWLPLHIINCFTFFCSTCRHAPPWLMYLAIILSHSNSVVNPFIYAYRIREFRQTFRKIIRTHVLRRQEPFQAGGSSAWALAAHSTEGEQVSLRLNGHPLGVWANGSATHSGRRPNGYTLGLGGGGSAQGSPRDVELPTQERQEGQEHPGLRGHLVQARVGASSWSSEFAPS
UniProt P25099, whole entry: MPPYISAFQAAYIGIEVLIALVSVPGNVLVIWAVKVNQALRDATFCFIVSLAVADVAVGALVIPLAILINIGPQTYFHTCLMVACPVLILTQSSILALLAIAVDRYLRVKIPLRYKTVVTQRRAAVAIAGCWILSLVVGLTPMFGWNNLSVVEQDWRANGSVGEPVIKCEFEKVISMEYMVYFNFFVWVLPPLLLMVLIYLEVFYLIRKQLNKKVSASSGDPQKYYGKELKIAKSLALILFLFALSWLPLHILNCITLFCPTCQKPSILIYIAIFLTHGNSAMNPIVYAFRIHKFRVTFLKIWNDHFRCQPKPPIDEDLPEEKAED

Key:
[1] = target: Adenosine receptor A2a (Rattus norvegicus, UniProt P30543)
[2] = target: Adenosine receptor A1 (Rattus norvegicus, UniProt P25099)

Ki [1]: > 1 µM
Ki [2]: > 1 µM
Structure (SMILES): COc1ccc(C(=O)c2sc(Nc3ccccc3)nc2-c2ccccc2)cc1
